Biological target: T1, Organic anion transporter 3 (Mus musculus, UniProt O88909)
T1 sequence (O88909 whole entry): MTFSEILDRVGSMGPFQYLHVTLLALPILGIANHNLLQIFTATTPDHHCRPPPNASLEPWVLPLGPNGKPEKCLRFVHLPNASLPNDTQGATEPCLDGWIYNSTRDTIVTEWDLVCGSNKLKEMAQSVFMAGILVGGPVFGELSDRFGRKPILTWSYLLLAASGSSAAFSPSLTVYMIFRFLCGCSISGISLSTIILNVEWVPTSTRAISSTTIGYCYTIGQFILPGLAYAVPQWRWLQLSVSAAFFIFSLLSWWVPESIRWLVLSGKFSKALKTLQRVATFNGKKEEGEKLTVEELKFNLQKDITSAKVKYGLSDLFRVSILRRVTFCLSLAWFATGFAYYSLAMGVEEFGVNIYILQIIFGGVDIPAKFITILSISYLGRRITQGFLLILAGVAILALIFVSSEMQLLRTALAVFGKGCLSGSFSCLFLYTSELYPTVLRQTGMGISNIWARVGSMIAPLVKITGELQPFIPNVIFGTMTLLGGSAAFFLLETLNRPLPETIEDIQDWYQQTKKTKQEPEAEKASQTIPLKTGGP
Test: Inhibition of mouse OAT3 expressed in CHO cells assessed as inhibition of fluorescein uptake at 500 uM over 20 mins relative to untreated-control; call rule not given here
Assay type: ADME, cell-based

inhibition (INH): Not Active
Compound: CC1=C(C(=O)O)N2C(=O)[C@@H](NC(=O)[C@H](N)c3ccccc3)[C@H]2SC1 [CEPHALEXIN ANHYDROUS]

— ChEMBL document CHEMBL3525990, “Organic anion transporter 3 interacts selectively with lipophilic β-lactam antibiotics” (Drug Metab Dispos, 2013)
